Measurements from paper PMC5586342, “Mouse glutamate carboxypeptidase II (GCPII) has a similar enzyme activity and inhibition profile but a different tissue distribution to human GCPII” (FEBS Open Bio, 2017).

The chains behind the UniProt entries cited, without tags or fusion partners. Residues count along the entry.
UniProt O35409, 45-752 limits assumed: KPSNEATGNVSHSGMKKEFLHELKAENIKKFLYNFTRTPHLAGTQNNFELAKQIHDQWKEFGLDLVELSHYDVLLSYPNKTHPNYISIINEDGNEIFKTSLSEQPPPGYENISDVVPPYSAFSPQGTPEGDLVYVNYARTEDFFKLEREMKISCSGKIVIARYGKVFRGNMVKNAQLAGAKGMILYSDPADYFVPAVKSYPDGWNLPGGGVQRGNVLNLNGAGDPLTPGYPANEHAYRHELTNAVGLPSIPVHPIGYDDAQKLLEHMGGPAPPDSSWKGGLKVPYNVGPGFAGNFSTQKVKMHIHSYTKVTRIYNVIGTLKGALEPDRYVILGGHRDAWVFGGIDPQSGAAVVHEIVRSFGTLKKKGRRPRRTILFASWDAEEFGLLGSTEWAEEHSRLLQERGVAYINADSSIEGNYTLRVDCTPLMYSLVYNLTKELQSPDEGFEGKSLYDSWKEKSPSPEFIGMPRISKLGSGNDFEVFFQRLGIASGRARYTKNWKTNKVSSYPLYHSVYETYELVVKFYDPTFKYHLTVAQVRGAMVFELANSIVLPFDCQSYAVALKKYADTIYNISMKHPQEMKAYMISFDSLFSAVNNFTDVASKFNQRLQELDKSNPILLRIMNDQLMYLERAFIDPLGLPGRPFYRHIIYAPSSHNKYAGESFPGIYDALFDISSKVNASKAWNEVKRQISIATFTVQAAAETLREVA
UniProt Q04609, 44-750 limits assumed: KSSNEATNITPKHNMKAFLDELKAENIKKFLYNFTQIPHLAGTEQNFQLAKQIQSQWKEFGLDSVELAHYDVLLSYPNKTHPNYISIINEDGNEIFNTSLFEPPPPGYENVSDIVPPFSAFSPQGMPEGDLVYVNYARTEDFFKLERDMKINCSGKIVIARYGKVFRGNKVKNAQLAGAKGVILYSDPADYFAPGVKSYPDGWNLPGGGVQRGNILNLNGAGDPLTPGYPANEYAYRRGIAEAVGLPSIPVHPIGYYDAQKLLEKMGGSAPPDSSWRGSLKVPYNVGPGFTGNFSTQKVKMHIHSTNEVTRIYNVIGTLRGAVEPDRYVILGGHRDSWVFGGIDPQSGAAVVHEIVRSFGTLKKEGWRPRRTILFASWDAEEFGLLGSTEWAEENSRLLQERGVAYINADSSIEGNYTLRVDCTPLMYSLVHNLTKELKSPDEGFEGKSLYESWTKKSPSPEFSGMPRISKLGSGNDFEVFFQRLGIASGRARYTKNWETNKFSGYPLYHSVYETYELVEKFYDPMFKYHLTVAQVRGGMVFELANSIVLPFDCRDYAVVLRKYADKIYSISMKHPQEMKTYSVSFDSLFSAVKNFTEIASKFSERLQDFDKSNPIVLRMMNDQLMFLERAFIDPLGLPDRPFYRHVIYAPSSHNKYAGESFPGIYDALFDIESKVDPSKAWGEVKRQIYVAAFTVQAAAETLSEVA

What was measured:
[1] = molecular target: Avi-mGCPII (recombinant extracellular mouse GCPII) (Mus musculus, UniProt O35409); test: HPLC assay of pteroyl-di-L-glutamate cleavage; format: biochemical; conditions: read-out: K i (Avi-mGCPII); substrate pteroyl-di-L-glutamate ([…] final), […] Bis-Tris propane, […] NaCl, pH […] °C
[2] = molecular target: Avi-hGCPII (recombinant extracellular human GCPII) (Homo sapiens, UniProt Q04609); test: HPLC assay of pteroyl-di-L-glutamate cleavage; format: biochemical; conditions: read-out: K i (Avi-hGCPII); substrate pteroyl-di-L-glutamate ([…] final), […] Bis-Tris propane, […] NaCl, pH […] °C

Compound: CC(=O)N(CCCC[C@H](NC(=O)N[C@@H](CCC(=O)O)C(=O)O)C(=O)O)Cc1ccc(Br)cc1 (single isomer, unassigned)
- pKi [1]: 9.17
- pKi [2]: 10.30

Compound: CC(=O)NCCCC[C@H](NC(=O)N[C@@H](CCC(=O)O)C(=O)O)C(=O)O (single isomer, unassigned)
- pKi [1]: 9.18
- pKi [2]: 9.77

pKi: −log10 of the molar value.
